This passage reports vmax results from article PMC12163485 (2025).

This assay deals with T1, human OCT1 (hOCT1) (Homo sapiens, UniProt O15245).
T1 sequence (O15245 1-554): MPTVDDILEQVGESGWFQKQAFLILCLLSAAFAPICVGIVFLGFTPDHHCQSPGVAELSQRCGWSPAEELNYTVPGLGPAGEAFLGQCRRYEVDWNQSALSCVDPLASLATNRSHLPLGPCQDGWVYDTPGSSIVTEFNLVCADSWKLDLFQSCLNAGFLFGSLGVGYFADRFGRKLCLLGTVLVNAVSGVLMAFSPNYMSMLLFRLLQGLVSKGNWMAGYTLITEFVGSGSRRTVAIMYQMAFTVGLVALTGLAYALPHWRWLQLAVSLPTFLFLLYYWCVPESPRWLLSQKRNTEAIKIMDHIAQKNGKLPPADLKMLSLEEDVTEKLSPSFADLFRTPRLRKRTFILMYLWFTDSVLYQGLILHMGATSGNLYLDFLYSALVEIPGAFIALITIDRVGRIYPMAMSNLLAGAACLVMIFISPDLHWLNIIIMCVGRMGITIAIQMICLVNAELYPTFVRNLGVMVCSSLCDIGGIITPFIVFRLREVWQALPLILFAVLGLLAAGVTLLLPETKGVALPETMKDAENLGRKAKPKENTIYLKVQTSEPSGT
As to the kind of experiment: Transport kinetics (KM, vmax) of OCT1-mediated uptake, HEK293 cells overexpressing human OCT1. It is filed as in vitro ADME. Particulars: mean ± SD.

In the case of `CC(Cc1ccc(O)cc1)NCC(O)c1cc(O)cc(O)c1` (centres unmarked) [Fenoterol, fenoterol], the vmax is, setting by setting: (substrate tested alone) 44.4 ± 10.5 pmol x min^-1 x mg protein^-1; (substrate tested in cocktail) 43.9 ± 9.66 pmol x min^-1 x mg protein^-1.
